Biological target: SPD_0090 (Streptococcus pneumoniae, UniProt A0A0H2ZQK8)
Experiment: biochemical

C=CC1=C(C)C2=Cc3c(C=C)c(C)c4[n]3[Fe]([Cl])[n]3c(c(C)c(CCC(=O)O)c3=CC3=NC(=C4)C(C)=C3CCC(=O)O)=CC1=N2 [hemin]
Kd: 21.7 µM

From paper PMC9234739, “SPD_0090 Negatively Contributes to Virulence of Streptococcus pneumoniae” (Frontiers in Microbiology, 2022)
